Values quoted from earlier work as cited in PMC6692079 (Journal of medicinal chemistry, 2018).

Protein sequences, listed by entry. Tags and fused reporters are not part of them. Lines headed by an entry give the natural chain unless they say otherwise; changes in a name come on top.
UniProt P41145: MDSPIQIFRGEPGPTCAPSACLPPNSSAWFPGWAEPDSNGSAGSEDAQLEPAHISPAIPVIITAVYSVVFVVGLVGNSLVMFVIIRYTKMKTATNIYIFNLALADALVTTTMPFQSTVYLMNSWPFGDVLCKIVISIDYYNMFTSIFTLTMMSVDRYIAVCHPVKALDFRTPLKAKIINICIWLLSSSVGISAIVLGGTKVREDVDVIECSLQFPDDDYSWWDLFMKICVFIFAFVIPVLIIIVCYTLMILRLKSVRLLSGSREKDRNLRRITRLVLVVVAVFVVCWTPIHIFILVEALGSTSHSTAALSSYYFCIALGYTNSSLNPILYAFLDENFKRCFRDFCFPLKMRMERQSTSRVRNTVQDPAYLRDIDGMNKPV

Biological target: human κ opioid receptor (Homo sapiens, UniProt P41145)
Settings: ratio of Ke values; previously reported; cited from earlier work

In the case of CC(C)[C@@H](CN1CCCCC1)NC(=O)[C@H]1Cc2ccc(O)cc2CN1 [Compound 1, (3R)‑7-Hydroxy‑N‑[(1S)‑2-methyl-1-(piperidin-1-ylmethyl)propyl]-1,2,3,4-tetrahydroisoquinoline-3-carboxamide], the δ/κ is listed as over 441.
